Measurements: patent US10610582B2, “Compound and method for vaccination and immunisation” (PCI Biotech AS, priority 2013, dated 2020)

Tested on: antigen specific CD8 T-cells
Details: after 1st and 2nd immunisation; 200 μg OVA + labelled adjuvant (50 μg imiquimod or 10 μg MPLA-SM) combined with PCI (100 μg TPCS2a + light)

| Compound | % antigen-specific, CD44+ cells of the total CD8+ cells |
| --- | --- |
| Monophosphoryl Lipid A [MPLA] | substantially better immunisation effect than what was achieved using the adjuvants alone |
| CC(C)Cn1cnc2c(N)nc3ccccc3c21 [imiquimod, 3-(2-methylpropyl)-3,5,8-triazatricyclo[7.4.9.0^2,6]trideca-1(9),2(6),4,7,10,12-hexaen-7-amine] | substantially better immunisation effect than what was achieved using the adjuvants alone |
